Data from patent US20060121085A1, “Formulations for cell-schedule dependent anticancer agents” (priority 2003, published 2006).

Tested on: subcutaneous SW480 (Human Colon Cancer) tumors
Test: Example 4 Floxuridine in Atrix polymer, SCID mice bearing SW480 tumors II
Settings: 100 mg/kg FUDR/Saline × 1, ip, 20 μL

## O=c1[nH]c(=O)n([C@H]2C[C@H](O)[C@@H](CO)O2)cc1F [FUDR, 5-fluorodeoxyuridine]
  Mortality (%): 0%
